Results from patent US8119806B2, “Cicletanine derivatives” (Merck Sharp & Dohme Corp., priority 2008, dated 2012).

Test system: isolated rabbit thoracic aorta preparations
Assay: Vessel relaxation in isolated rabbit thoracic aorta rings precontracted with noradrenaline
Details: read-out: Vessel Relaxation Data ED50; isolated rabbit aortic rings, noradrenaline 1 μM precontraction, functional endothelium

SMILES: O=C(O)[C@H]1C[C@H](O[N+](=O)[O-])[C@H](O[N+](=O)[O-])C1
- EC50: 5.26 µM
